Test results taken from patent US9504729B2, “Antiangiogenic small molecules and methods of use” (The United States of America, as represented by the …, priority 2009, dated 2016).

Tested on: PAE cells

Substance	Cytotoxicity (%)
3-[(2,4- dimethylphenyl)carbamoyl]naphthalen-2- olate; N-(2,4-dimethylphenyl)-3- hydroxynaphthalene-2-carboxamide; nickel(2+) [Compound 37]	7.924%
[benzylsulfanyl(sulfoniumylidene) methyl]-(1-pyridin-2- ylethylideneamino)azanide; chlorocopper [Compound 65]	13.75%
azidobenzene; 1H-indene; prop-1-en-2- ylbenzene [Compound 49]	6.968%
